Test results: patent US7510845B2, “Assay employing G protein-coupled receptor expressed in dorsal root ganglia” (California Institute of Technology, priority 2000, dated 2009)

Legend:
Format in all cases: cell-based
MRGA4 [1] = target: T1, MRGA4 (Mus musculus, UniProt Q91WW2, A204G); assay: Intracellular Ca2+ release assay, MRGA4 in HEK cells lacking Gα15; conditions: ligand 1 μM
T1 construct: cDNAs encoding eight full-length variants of Mrg receptors (mMrgA1-8) are provided; expressed in transfected cells; host or cells: HEK293-Galpha15 (A2) or HEK293 lacking Galpha15 (A5), transient transfection with FuGENE 6
T1 sequence (Q91WW2 9-313 A204G limits assumed): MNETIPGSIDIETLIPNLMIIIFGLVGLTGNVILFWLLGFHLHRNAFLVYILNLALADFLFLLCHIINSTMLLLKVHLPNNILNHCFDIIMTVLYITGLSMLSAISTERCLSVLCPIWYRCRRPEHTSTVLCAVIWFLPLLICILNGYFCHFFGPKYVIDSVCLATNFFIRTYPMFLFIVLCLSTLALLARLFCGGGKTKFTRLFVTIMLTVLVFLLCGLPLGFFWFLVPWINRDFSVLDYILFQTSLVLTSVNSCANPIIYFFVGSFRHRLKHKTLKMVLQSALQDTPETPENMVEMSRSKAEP
Procedure: (§1) To identify ligands for the Mrg receptors, selected MrgA genes were tested in a calcium release assay. MrgA genes, including MrgA1 and MrgA4, were cloned into a eukaryotic expression vector and transfected into human embryonic kidney (HEK) 293 cells. HEK-293 cells were obtained from the ATCC and cultured in DMEM supplemented with 10% fetal bovine serum. […]
(§2) Briefly, transfected cells were washed once in Hank's balanced salt solution with 11 mM D-glucose and 10 mM HEPES, pH 7.4 (assay buffer) and loaded with 2 μM Fura-2 AM (Molecular Probes) at room temperature for 90 min, with rotation. […] A cooled CCD camera (Photometric) was used in detecting fluorescence. […] Fura-2 fluorescence signals (340 nm, 380 nm and the 340/380 ratio) originating from GFP-positive cells were continuously monitored at 0.4- or 1-second intervals and collected using Axon Imaging Workbench 4.0 software (Axon). […]

MRGA1 [2] = target: T2, MRGA1 (Mus musculus, UniProt Q91WW5); assay: Intracellular Ca2+ release assay (Fura-2), MRGA1-GFP in HEK-Gα15 cells
T2 construct: cDNAs encoding eight full-length variants of Mrg receptors (mMrgA1-8) are provided; expressed in transfected cells; host or cells: HEK293-Galpha15 (A1) or HEK293 lacking Galpha15 (A4), transient transfection with FuGENE 6
T2 sequence (Q91WW5 1-304): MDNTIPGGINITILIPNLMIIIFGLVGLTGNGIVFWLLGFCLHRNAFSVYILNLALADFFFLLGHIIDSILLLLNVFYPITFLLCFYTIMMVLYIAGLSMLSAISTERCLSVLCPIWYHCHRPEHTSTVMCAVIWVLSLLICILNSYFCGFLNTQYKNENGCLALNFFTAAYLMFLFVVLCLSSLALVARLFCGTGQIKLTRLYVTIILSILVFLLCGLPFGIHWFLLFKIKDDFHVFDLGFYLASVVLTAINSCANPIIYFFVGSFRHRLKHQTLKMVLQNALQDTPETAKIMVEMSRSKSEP
Procedure: To identify ligands for the Mrg receptors, selected MrgA genes were tested in a calcium release assay. MrgA genes, including MrgA1 and MrgA4, were cloned into a eukaryotic expression vector and transfected into human embryonic kidney (HEK) 293 cells. HEK-293 cells were obtained from the ATCC and cultured in DMEM supplemented with 10% fetal bovine serum. An HEK293-Gα15 cell line stably expressing Gα15 was provided by Aurora Biosciences Corporation and grown on Matrigel™ (growth factor reduced Matrigel, Becton Dickinson, diluted 1:200 with serum-free DMEM)-coated flasks and maintained at 37° C. in DMEM (GibcoBRL) supplemented with 10% heat-inactivated fetal bovine serum, 2 mM L-glutamine, 0.1 mM non-essential amino acids, 1 mM sodium pyruvate, 25 mM HEPES and 3 μg/ml blastcidin-S. For transfection, cells were seeded on Matrigel-coated 35 mm glass-bottom dishes (Bioptech Inc., Butler, Pa.). After 16-24 hr, cells were transfected using FuGENE 6 (Roche). Transfection efficiencies were estimated by visualization of GFP fused to the C-terminus of MrgA1 and A4, and were typically >60%. […]
(§3) To increase the sensitivity of the calcium release assay, in some experiments the MRGA-GFP fusion proteins were expressed in HEK 293 cells modified to express Gα15, which couples GPCRs to a signal transduction pathway leading to the release of intracellular free Ca^2+ (Offermann and Simon J Biol Chem 270: 15175-80 (1995)). This calcium release can be monitored ratiometrically using Fura-2 as a fluorescent indicator dye (Tsien et al. Cell Calcium 6: 145-57 (1985)) (FIGS. 11A-C). […]
as §2

MAS1 = assay: Intracellular Ca2+ release assay (Fura-2), MAS1 in HEK-Gα15 cells
MRGA1 [3] = target: T2, MRGA1; assay: Intracellular Ca2+ release assay, MRGA1 in HEK cells lacking Gα15; conditions: ligand 1 μM
Procedure: as §1, §2

MRGA4 [4] = target: T1, MRGA4; assay: Intracellular Ca2+ release assay (Fura-2), MRGA4-GFP in HEK-Gα15 cells
Procedure: as §1, §3, §2

Calcium response of MRGA4-expressing cells to ligand (MRGA4 [1]): but not
EC50 (MRGA1 [2]; HEK cells, RF-amide ligands, read-out: Relative efficacy of activation of MRGA1): 10 to 100 nM
EC50 (MRGA1 [2]; HEK-Gα15 cells, dose-response, normalized to 5 μM FLRF, read-out: EC50 for activation of MRGA1 (calcium response)): ~20 nM
EC50 (MAS1; HEK cells, RF-amide ligands, read-out: Relative efficacy of activation of MAS1): > 1000 nM
Calcium response of MRGA1-expressing cells to ligand (MRGA1 [3]): respond
Activation of MrgA4 in dose-response experiments (MRGA4 [4]; HEK cells expressing Gα15): much more weakly activated
EC50 (MRGA4 [4]; HEK cells, RF-amide ligands, read-out: Relative efficacy of activation of MRGA4): > 1000 nM
Structure (SMILES): CC(C)C[C@H](NC(=O)[C@@H](N)Cc1ccccc1)C(=O)N[C@@H](CCCNC(=N)N)C(=O)N[C@@H](Cc1ccccc1)C(N)=O [FLRF]
Calcium response of MRGA1-expressing cells to ligand (MRGA1 [2]; HEK-Gα15 cells, ligand 1 μM): most efficient responses; also recorded: elevated intracellular free Ca^++; also recorded: strongest responses
Activation of MAS1 (MAS1; HEK-Gα15 cells): poorly activated; also recorded: not as well activated

Entries after “also recorded” stand apart in the source; their conditions may differ. Read-outs that look alike come from different tables or passages of the source.
